Test results published in patent US4515891A, “Process for the production of disaccharide-tripeptide and disaccharide-tetrapeptide” (priority 1982, dated 1985).

Test: Solubility (physicochemical properties)

β-N-acetylglucosaminyl-(1→4)-N,6-O-diacetylmuramyl-L-alanyl-D- isoglutaminyl-(L)-meso-2,6-diaminopimelic acid-(D)-amide-(L)-D-alanine [GMP4 -B]
Solubility (in diethyl ether): insoluble | Solubility (in water, 50% C1-3 alcohol): Soluble
